Laboratory results as given in publication PMC8537386, “The Specificity and Broad Multitarget Properties of Ligands for the Free Fatty Acid Receptors FFA3/GPR41 and FFA2/GPR43 and the Related Hydroxycarboxylic Acid Receptor HCA2/GPR109A” (Pharmaceuticals, 2021).

System: HCA2/GPR109A mRNA
Experiment: HCA2/GPR109A gene expression in LPS-stimulated THP-1 macrophages (qRT-PCR)
Assay type: cell-based, human
Details: niacin 50 µM; 4 h LPS 1 µg/mL; p < 0.01
Protocol: The human THP-1 monocyte cell line was obtained from ATCC (American Type Culture Collection). […] The THP-1 monocytes were stimulated to differentiate into macrophages with phorbol 12-myristate 13-acetate (PMA) (50 ng/mL) for 24 h. The medium was exchanged for PMA-free medium for 48 h before the cells were used for experiments.
The total RNA was isolated from THP-1 cells using TRIzol reagent, according to the manufacturer’s protocol. First-strand cDNA was synthesized from 2 µg of RNA using oligo(dT) primers with RevertAid H Minus kit (Thermo Fisher Scientific, USA). The qRT-PCR procedure was performed using ABsolute Blue QPCR SYBR Green Master Mix reagent (Thermo Fisher Scientific, USA) with a ViiA7 real-time PCR detection system (Applied Biosystems, USA). The primer pairs that were employed for HCA2/GPR109A were forward 5′-[…]-3′ and reverse 5′-[…]-3′; for FFA2/GPR43 were forward 5′-[…]-3′ and reverse 5′-[…]-3′; for FFA3/GPR41 were forward 5′-[…]-3′ and reverse 5′-[…]-3′; for IL-6 were forward 5′-[…]-3′ and reverse 5′-[…]-3′; for MCP-1 were forward 5′-[…]-3′ and reverse 5′-[…]-3′; for TNF-α were forward 5′-[…]-3′ and reverse 5′-[…]-3′; for RPS29 were forward 5′-[…]-3′ and reverse 5′- […]-3′. The mRNA levels were quantified and normalized to the levels of the reference gene RPS29 using the 2^−ΔΔCt method and presented as relative expression compared to the values for untreated cells.

## O=C(O)c1cccnc1 [niacin, reference compound]
  LPS-stimulated HCA2/GPR109A mRNA level: significantly reduced
